Laboratory results reported in PMC11370232, “Repurposing of a library for high-content screening of inhibitors against Echinococcus granulosus” (Parasites & Vectors, 2024).
In brackets after ≈: the same amount, converted by molar mass. Where a name gives a salt, the structure may show the parent alone. Read-outs that look alike come from different tables or passages of the source.

Tested on: E. granulosus PSCs
Test: microbe, parasite or virus in culture
Details: Echinococcus granulosus
[1] = read-out: Anti-echinococcus activity % of death
[2] = 72 h, read-out: Anti-echinicoccus activity, Dose confirmaiton 0.5uM, second-stage dose-response, 0.5 μM, PSCs
[3] = 72 h, read-out: Anti-echinicoccus activity, Dose confirmaiton 2uM, second-stage dose-response, 2 μM, PSCs
[4] = 72 h, read-out: Anti-echinicoccus activity, Dose confirmaiton 10uM, second-stage dose-response, 10 μM, PSCs
[5] = 72 h, read-out: Anti-echinicoccus activity, Dose confirmaiton 50uM, second-stage dose-response, 50 μM, PSCs
[6] = 72 h, read-out: Anti-echinicoccus activity, Initiate hits 50uM, primary screen, 50 μM, PSCs, 3-day incubation, PI staining (death rate of PSCs)
[7] = read-out: Anti-echinococcus activity % of death, 0.5uM
[8] = read-out: Anti-echinococcus activity % of death, 2uM
[9] = read-out: Anti-echinococcus activity % of death, 10uM
[10] = read-out: Anti-echinococcus activity % of death, 50uM
[11] = read-out: Anti-echinococcus activity % of death, 0.5uM, E. granulosus PSCs, compound at 0.5uM
[12] = read-out: Anti-echinococcus activity % of death, 2uM, E. granulosus PSCs, compound at 2uM
[13] = read-out: Anti-echinococcus activity % of death, 10uM, E. granulosus PSCs, compound at 10uM
[14] = read-out: Anti-echinococcus activity % of death, 50uM, E. granulosus PSCs, compound at 50uM

Molecule `CN(C)CCC1CCc2cc(OCc3ccc(-c4ccccc4)cc3)ccc2C1` (stereo not drawn) [TAK-070] has a mortality at 0.5 µM [1] of 0%, a mortality at 2 µM [1] of 0% and a mortality at 10 µM [1] of 0%. It also gave a mortality at 50 µM [1] of 100%.
For `CC1(C)CCC2=C(O1)c1ccccc1C(=O)C2=O` [Beta-Lapachone, reference compound], the killing at 0.5 µM [2] was 0%, the killing at 2 µM [3] was 0% and the killing at 10 µM [4] was 50%. The killing at 50 µM [5] was 100% and the killing at 50 µM [6] was 100%.
Work on `O=C1C=Cc2cc(Br)ccc2C1=O` [Bonaphthone] yielded a mortality at 0.5 µM [7] of 0%, a mortality at 2 µM [8] of 0% and a mortality at 10 µM [9] of 0%. For the same molecule, the mortality at 50 µM [10] was 100%.
For `CCc1ccc(OCc2ccccc2C(=O)Nc2ccc3nc(C)cc(N)c3c2)cc1` [JTC-801, reference compound], the killing at 0.5 µM [2] was 0%, the killing at 2 µM [3] was 0% and the killing at 10 µM [4] was 40%. It also gave a killing at 50 µM [5] of 100%, a killing at 50 µM [6] of 100% and an MIC90 (72 h, read-out: MIC90 (minimum inhibitory concentration causing a 90% death of PSCs)) of 16.4 µM (≈ 6.75 µg/mL). For the same molecule, the mortality at 0.5 µM [7] was 0%, the mortality at 2 µM [8] was 0% and the mortality at 10 µM [9] was 100%. It also gave a mortality at 50 µM [10] of 100%.
`COc1cccc2c1C(=O)c1c(O)c3c(c(O)c1C2=O)C[C@@](O)(C(=O)CO)C[C@@H]3O[C@H]1C[C@H](N)[C@@H](O)[C@H](C)O1` [Epirubicin HCl, reference compound] gave a killing at 0.5 µM [2] of 100%, a killing at 2 µM [3] of 100% and a killing at 10 µM [4] of 100%. For the same molecule, the killing at 50 µM [5] was 100% and the killing at 50 µM [6] was 100%.
`C=CC(=O)Nc1cc2c(Nc3ccc(F)c(Cl)c3)ncnc2cc1C#CC(C)(C)N1CCN(C)CC1` [MP-412] gave a mortality at 0.5 µM [7] of 0%, a mortality at 2 µM [8] of 0% and a mortality at 10 µM [9] of 100%. It also gave a mortality at 50 µM [10] of 100%.
In the case of `COC1C(OC(C)=O)C(C)OC(OC2CC[C@@]3(C=O)[C@@H](CCC4[C@@H]3CC[C@]3(C)[C@H](c5ccc(=O)oc5)CCC43O)C2)C1OC(C)=O` (stereo partly drawn) [0/P35], the mortality at 0.5 µM [7] was 0%, the mortality at 2 µM [8] was 50% and the mortality at 10 µM [9] was 100%. It also gave a mortality at 50 µM [10] of 100%.
`CNc1ccc2oc(C[C@H]3O[C@@]4(CC[C@H]3C)O[C@H]([C@H](C)C(=O)c3ccc[nH]3)[C@H](C)C[C@H]4C)nc2c1C(=O)O` [Calcimycin, reference compound] gave a killing at 0.5 µM (72 h, read-out: Anti-echinicoccus activity, Dose confirmaiton 0.5uM) of 0%, a killing at 2 µM (72 h, read-out: Anti-echinicoccus activity, Dose confirmaiton 2uM) of 0% and a killing at 10 µM (72 h, read-out: Anti-echinicoccus activity, Dose confirmaiton 10uM) of 100%. The killing at 50 µM (72 h, read-out: Anti-echinicoccus activity, Dose confirmaiton 50uM) was 100%, the killing at 50 µM (72 h, read-out: Anti-echinicoccus activity, Initiate hits 50uM) was 74% and the mortality at 0.5 µM [7] was 0%. It also gave a mortality at 2 µM [8] of 70%, a mortality at 10 µM [9] of 100% and a mortality at 50 µM [10] of 100%.
`O=c1[nH]c2cc(Cl)ccc2n1C1CCN(CCCC(c2ccc(F)cc2)c2ccc(F)cc2)CC1` [CLOPIMOZIDE] was tested, and the mortality at 0.5 µM [7] was 0%, the mortality at 2 µM [8] was 0% and the mortality at 10 µM [9] was 30%. It also gave a mortality at 50 µM [10] of 100%.
`NC(=O)C1(N2CCCCC2)CCN(CCCN2c3ccccc3CCc3ccccc32)CC1` [CARPIPRAMINE] was tested, and the mortality at 0.5 µM [1] was 0%, the mortality at 2 µM [1] was 0% and the mortality at 10 µM [1] was 0%. For the same molecule, the mortality at 50 µM [1] was 100%.
With `Cc1ccc(Sc2ccccc2N2CCNCC2)c(C)c1` [Vortioxetine hydrobromide] the mortality at 0.5 µM [1] was 0%, the mortality at 2 µM [1] was 0% and the mortality at 10 µM [1] was 0%. It also gave a mortality at 50 µM [1] of 100%.
`CC/C(=C(\c1ccccc1)c1ccc(OCCN(C)C)cc1)c1ccccc1` [Tamoxifen citrate, reference compound] was tested, and the killing at 0.5 µM [2] was 0%, the killing at 2 µM [3] was 0% and the killing at 10 µM [4] was 0%. It also gave a killing at 50 µM [6] of 76%.
In the case of `CCOC(=O)[C@H](Cc1ccc(F)cc1)NC(=O)[C@@H](N)Cc1ccc(N(CCCl)CCCl)cc1` [J-1], the mortality at 0.5 µM [7] was 0%, the mortality at 2 µM [8] was 0% and the mortality at 10 µM [9] was 100%. It also gave a mortality at 50 µM [10] of 100%.
For `CN1C/C=C/CCOc2cccc(c2)-c2ccnc(n2)Nc2cccc(c2)C1` [TG-02], the mortality at 0.5 µM [11] was 0%, the mortality at 2 µM [12] was 0% and the mortality at 10 µM [13] was 0%. It also gave a mortality at 50 µM [14] of 100%.
Molecule `CC1(C)CC[C@]2(NC(=O)C(C)(F)F)CC[C@]3(C)[C@H](C(=O)C=C4[C@@]5(C)C=C(C#N)C(=O)C(C)(C)[C@@H]5CC[C@]43C)[C@@H]2C1` [RTA-63415] has a mortality at 0.5 µM [7] of 0%, a mortality at 2 µM [8] of 0% and a mortality at 10 µM [9] of 100%. It also gave a mortality at 50 µM [10] of 100%.
For `CC1=C(CO)C(=O)O[C@@H]([C@@H](C)[C@H]2CC[C@H]3[C@@H]4C[C@H]5O[C@]56[C@@H](O)C=CC(=O)[C@]6(C)[C@H]4CC[C@]23C)C1` [WITHAFERIN A], the mortality at 0.5 µM [11] was 0%, the mortality at 2 µM [12] was 0% and the mortality at 10 µM [13] was 100%. It also gave a mortality at 50 µM [14] of 100%.
With `[H]/N=C(/NCCCCC)N/N=C/c1c[nH]c2ccc(OC)cc12` [Tegaserod maleate] the mortality at 0.5 µM [1] was 0%, the mortality at 2 µM [1] was 0% and the mortality at 10 µM [1] was 0%. The mortality at 50 µM [1] was 100%.
